Data on 23 compounds can be found in patent US9579314B2 (priority 2015, dated 2017).

Chains of the proteins cited; added tags and fusions are not shown.
UniProt P07550, whole entry, looked up: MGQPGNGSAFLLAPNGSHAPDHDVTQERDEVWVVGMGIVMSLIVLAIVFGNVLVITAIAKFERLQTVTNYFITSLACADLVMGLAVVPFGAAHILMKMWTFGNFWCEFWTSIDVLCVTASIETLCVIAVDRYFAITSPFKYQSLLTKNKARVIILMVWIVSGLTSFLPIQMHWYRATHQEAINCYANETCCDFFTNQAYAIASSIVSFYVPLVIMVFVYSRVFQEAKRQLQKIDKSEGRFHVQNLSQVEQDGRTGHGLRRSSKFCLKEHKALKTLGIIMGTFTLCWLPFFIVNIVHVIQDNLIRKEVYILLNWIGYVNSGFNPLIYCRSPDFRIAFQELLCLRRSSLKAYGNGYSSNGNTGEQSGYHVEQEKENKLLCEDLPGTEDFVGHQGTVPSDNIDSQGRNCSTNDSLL
UniProt P20309, whole entry, looked up: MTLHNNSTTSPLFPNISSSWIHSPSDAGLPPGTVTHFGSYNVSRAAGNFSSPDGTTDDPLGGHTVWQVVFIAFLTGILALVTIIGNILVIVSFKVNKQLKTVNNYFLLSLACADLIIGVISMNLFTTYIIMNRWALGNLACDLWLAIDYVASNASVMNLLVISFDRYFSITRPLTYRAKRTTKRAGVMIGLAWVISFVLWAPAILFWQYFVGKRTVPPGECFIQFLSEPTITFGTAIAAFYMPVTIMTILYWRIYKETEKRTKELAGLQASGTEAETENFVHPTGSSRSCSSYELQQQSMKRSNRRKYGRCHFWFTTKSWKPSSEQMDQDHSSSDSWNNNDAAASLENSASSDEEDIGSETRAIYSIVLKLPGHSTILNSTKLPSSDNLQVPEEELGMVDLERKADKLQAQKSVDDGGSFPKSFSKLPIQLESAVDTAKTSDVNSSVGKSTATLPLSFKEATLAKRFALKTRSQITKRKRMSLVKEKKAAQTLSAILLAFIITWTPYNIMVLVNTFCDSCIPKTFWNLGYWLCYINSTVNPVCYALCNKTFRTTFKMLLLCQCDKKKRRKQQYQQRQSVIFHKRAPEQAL

pIC50: −log10 of the molar value. Bounds are passed on as bounds.

For assay [1], the target named is Human β2 adrenoceptor (Homo sapiens, UniProt P07550). Kind of assay: β2 Adrenoceptor Radioligand Binding Assay. The settings on record: read-out: B2 binding affinity, Human β2 adrenoceptor membranes, classified in ranges.
Assay [2] deals with Human M3 receptor (Homo sapiens, UniProt P20309). In words: M3 Receptor Radioligand Binding Assay. The settings on record: read-out: M3 binding affinity, Human M3 receptor membranes, classified in ranges.

Regarding `CCN(CCNC(=O)c1ccc(CCNC[C@H](O)c2ccc(O)c3[nH]c(=O)ccc23)cc1)C(=O)COc1cccc([C@](O)(C(=O)OCC2CCN(Cc3ccccc3)CC2)c2ccccc2)c1`, the pIC50 in assay [1] is 8.52 to 9.52; in assay [2] it was less than 8.52.

Regarding `COc1ccc(C(O)(C(=O)O[C@H]2CN3CCC2CC3)c2cccc(OCCCCCNC[C@H](O)c3ccc(O)c4[nH]c(=O)ccc34)c2)cc1` (stereo partly shown), the pIC50 in assay [1] and in assay [2] was less than 8.52 each time.

For the compound `O=C(CCCCNC[C@H](O)c1ccc(O)c2[nH]c(=O)ccc12)Nc1cccc(C(O)(C(=O)O[C@H]2CN3CCC2CC3)c2ccccc2)c1` (stereo partly shown), the values for the pIC50 in assay [1] and in assay [2] were less than 8.52 and 8.52 to 9.52, respectively.

As to `O=C(NCCCCNC[C@H](O)c1ccc(O)c2[nH]c(=O)ccc12)c1cccc(C(O)(C(=O)O[C@H]2CN3CCC2CC3)c2ccccc2)c1` (stereo partly shown), the pIC50 was more than 9.52 in assay [1] and less than 8.52 in assay [2].

With `O=C(O[C@H]1CN2CCC1CC2)C(O)(c1cccc(OCCCCCNC[C@H](O)c2ccc(O)c3[nH]c(=O)ccc23)c1)C1CCCC1` (stereo partly shown), the pIC50 in assay [1] is more than 9.52; in assay [2] it was 8.52 to 9.52.

Turning to `CN(C)CCOC(=O)[C@](O)(c1ccccc1)c1cccc(OCCCCCNC[C@H](O)c2ccc(O)c3[nH]c(=O)ccc23)c1` [Compound 17, (S)-2-(dimethylamino)ethyl 2-hydroxy-2-(3-((5-(((R)-2-hydroxy-2-(8-hydroxy-2-oxo-1,2-dihydroquinolin-5-yl)ethyl)amino)pentyl)oxy)phenyl)-2-phenylacetate], in assay [2], the pIC50 was less than 8.52.

In the case of `CN(C)CCOC(=O)[C@@](O)(c1ccccc1)c1cccc(OCCCCCNC[C@H](O)c2ccc(O)c3[nH]c(=O)ccc23)c1` [Compound 18, (R)-2-(dimethylamino)ethyl 2-hydroxy-2-(3-((5-(((R)-2-hydroxy-2-(8-hydroxy-2-oxo-1,2-dihydroquinolin-5-yl)ethyl)amino)pentyl)oxy)phenyl)-2-phenylacetate], in assay [2], the pIC50 is less than 8.52.

As to `CN1CC[C@@H](OC(=O)[C@](O)(c2ccccc2)c2cccc(OCCCCCNC[C@H](O)c3ccc(O)c4[nH]c(=O)ccc34)c2)C1` [Compound 19], in assay [2], the pIC50 was 8.52 to 9.52.

For the compound `CN1CC[C@@H](OC(=O)[C@@](O)(c2ccccc2)c2cccc(OCCCCCNC[C@H](O)c3ccc(O)c4[nH]c(=O)ccc34)c2)C1` [Compound 20, (R)-(R)-1-methylpyrrolidin-3-yl 2-hydroxy-2-(3-((5-(((R)-2-hydroxy-2-(8-hydroxy-2-oxo-1,2-dihydroquinolin-5-yl)ethyl)amino)pentyl)oxy)phenyl)-2-phenylacetate], the pIC50 in assay [2] is less than 8.52.

On to `CN1CCC(OC(=O)[C@](O)(c2ccccc2)c2cccc(OCCCCCNC[C@H](O)c3ccc(O)c4[nH]c(=O)ccc34)c2)CC1` [Compound 21, (S)-1-methylpiperidin-4-yl 2-hydroxy-2-(3-((5-(((R)-2-hydroxy-2-(8-hydroxy-2-oxo-1,2-dihydroquinolin-5-yl)ethyl)amino)pentyl)oxy)phenyl)-2-phenylacetate], for which the pIC50 in assay [2] is 8.52 to 9.52.

Consider `CN1CCC(OC(=O)[C@@](O)(c2ccccc2)c2cccc(OCCCCCNC[C@H](O)c3ccc(O)c4[nH]c(=O)ccc34)c2)CC1` [Compound 22, (R)-1-methylpiperidin-4-yl 2-hydroxy-2-(3-((5-(((R)-2-hydroxy-2-(8-hydroxy-2-oxo-1,2-dihydroquinolin-5-yl)ethyl)amino)pentyl)oxy)phenyl)-2-phenylacetate], for which, in assay [2], the pIC50 was less than 8.52.

As to `CN1CCC[C@@H](OC(=O)[C@](O)(c2ccccc2)c2cccc(OCCCCCNC[C@H](O)c3ccc(O)c4[nH]c(=O)ccc34)c2)C1` [Compound 25], the pIC50 in assay [2] was 8.52 to 9.52.

`CN1CC(OC(=O)[C@](O)(c2ccccc2)c2cccc(OCCCCCNC[C@H](O)c3ccc(O)c4[nH]c(=O)ccc34)c2)C1` [Compound 26, (S)-1-methylazetidin-3-yl 2-hydroxy-2-(3-((5-(((R)-2-hydroxy-2-(8-hydroxy-2-oxo-1,2-dihydroquinolin-5-yl)ethyl)amino)pentyl)oxy)phenyl)-2-phenylacetate]: the pIC50 in assay [2] was 8.52 to 9.52.

With `CN1CC[C@@H](OC(=O)C(O)(c2ccccc2)c2cccc(C(=O)NCCCCNC[C@H](O)c3ccc(O)c4[nH]c(=O)ccc34)c2)C1` (stereo partly drawn) [Compound 49, (R)-1-methylpyrrolidin-3-yl 2-hydroxy-2-(3-((4-(((R)-2-hydroxy-2-(8-hydroxy-2-oxo-1,2-dihydroquinolin-5-yl)ethyl)amino)butyl)carbamoyl)phenyl)-2-phenylacetate diformate], in assay [2], the pIC50 was 8.52 to 9.52.

On to `O=C(NCCCOc1cccc([C@](O)(C(=O)OC2CCN(Cc3ccccc3)CC2)c2ccccc2)c1)c1ccc(CNC[C@H](O)c2ccc(O)c3[nH]c(=O)ccc23)cc1` [Compound 158, 1-Benzylpiperidin-4-yl (S)-2-hydroxy-2-(3-(3-(4-((((R)-2-hydroxy-2-(8-hydroxy-2-oxo-1,2-dihydroquinolin-5-yl)ethyl)amino)methyl)benzamido)propoxy)phenyl)-2-phenylacetate], for which, in assay [2], the pIC50 is 8.52 to 9.52.

For `O=C(NCCCOc1cccc([C@](O)(C(=O)OC[C@@H]2CCN(Cc3ccccc3)C2)c2ccccc2)c1)c1ccc(CNC[C@H](O)c2ccc(O)c3[nH]c(=O)ccc23)cc1` [Compound 159, ((R)-1-benzylpyrrolidin-3-yl)methyl (S)-2-hydroxy-2-(3-(3-(4-((((R)-2-hydroxy-2-(8-hydroxy-2-oxo-1,2-dihydroquinolin-5-yl)ethyl)amino)methyl)benzamido)propoxy)phenyl)-2-phenylacetate], the pIC50 in assay [2] was 8.52 to 9.52.

`O=C(NCCCOc1cccc([C@](O)(C(=O)OC[C@H]2CCN(Cc3ccccc3)C2)c2ccccc2)c1)c1ccc(CNC[C@H](O)c2ccc(O)c3[nH]c(=O)ccc23)cc1` [Compound 160, ((S)-1-benzylpyrrolidin-3-yl)methyl (S)-2-hydroxy-2-(3-(3-(4-((((R)-2-hydroxy-2-(8-hydroxy-2-oxo-1,2-dihydroquinolin-5-yl)ethyl)amino)methyl)benzamido)propoxy)phenyl)-2-phenylacetate]: the pIC50 in assay [2] is 8.52 to 9.52.

As to `O=C(NCCCOc1cccc([C@](O)(C(=O)O[C@@H]2CCN(Cc3ccccc3)C2)c2ccccc2)c1)c1ccc(CNC[C@H](O)c2ccc(O)c3[nH]c(=O)ccc23)cc1` [Compound 163, (R)-1-benzylpyrrolidin-3-yl (S)-2-hydroxy-2-(3-(3-(4-((((R)-2-hydroxy-2-(8-hydroxy-2-oxo-1,2-dihydroquinolin-5-yl)ethyl)amino)methyl)benzamido)propoxy)phenyl)-2-phenylacetate], in assay [2], the pIC50 was 8.52 to 9.52.

For the compound `O=C(NCCCOc1cccc([C@](O)(C(=O)O[C@H]2CCN(Cc3ccccc3)C2)c2ccccc2)c1)c1ccc(CNC[C@H](O)c2ccc(O)c3[nH]c(=O)ccc23)cc1` [Compound 164, (S)-1-benzylpyrrolidin-3-yl (S)-2-hydroxy-2-(3-(3-(4-((((R)-2-hydroxy-2-(8-hydroxy-2-oxo-1,2-dihydroquinolin-5-yl)ethyl)amino)methyl)benzamido)propoxy)phenyl)-2-phenylacetate], the pIC50 in assay [2] is 8.52 to 9.52.

In the case of `O=C(NCCCOc1cccc([C@](O)(C(=O)OC2CN(Cc3ccccc3)C2)c2ccccc2)c1)c1ccc(CNC[C@H](O)c2ccc(O)c3[nH]c(=O)ccc23)cc1` [Compound 165, 1-benzylazetidin-3-yl (S)-2-hydroxy-2-(3-(3-(4-((((R)-2-hydroxy-2-(8-hydroxy-2-oxo-1,2-dihydroquinolin-5-yl)ethyl)amino)methyl)benzamido)propoxy)phenyl)-2-phenylacetate], in assay [2], the pIC50 is 8.52 to 9.52.

Regarding `O=C(NCc1ccc(COc2cccc([C@](O)(C(=O)OC3CCN(Cc4ccccc4)CC3)c3ccccc3)c2)cc1)Nc1ccc(CNC[C@H](O)c2ccc(O)c3[nH]c(=O)ccc23)cc1` [Compound 166, 1-Benzylpiperidin-4-yl (S)-2-hydroxy-2-(3-((4-((3-(4-((((R)-2-hydroxy-2-(8-hydroxy-2-oxo-1,2-dihydroquinolin-5-yl)ethyl)amino)methyl)phenyl)ureido)-methyl)benzyl)oxy)phenyl)-2-phenylacetate], the pIC50 in assay [2] was 8.52 to 9.52.

`COc1cc(NC(=O)NCc2ccc(COc3cccc([C@](O)(C(=O)OC4CCN(Cc5ccccc5)CC4)c4ccccc4)c3)cc2)ccc1CNC[C@H](O)c1ccc(O)c2[nH]c(=O)ccc12` [Compound 167, 1-benzylpiperidin-4-yl (S)-2-hydroxy-2-(3-((4-((3-(4-((((R)-2-hydroxy-2-(8-hydroxy-2-oxo-1,2-dihydroquinolin-5-yl)ethyl)amino)methyl)-3-methoxyphenyl)ureido)methyl)benzyl)oxy)phenyl)-2-phenylacetate]: in assay [2], the pIC50 is 8.52 to 9.52.

Regarding `COc1cc(CNC[C@H](O)c2ccc(O)c3[nH]c(=O)ccc23)ccc1NC(=O)NCc1ccc(COc2cccc([C@](O)(C(=O)OC3CCN(Cc4ccccc4)CC3)c3ccccc3)c2)cc1` [Compound 168, 1-benzylpiperidin-4-yl (S)-2-hydroxy-2-(3-((4-((3-(4-((((R)-2-hydroxy-2-(8-hydroxy-2-oxo-1,2-dihydroquinolin-5-yl)ethyl)amino)methyl)-2-methoxyphenyl)ureido)methyl)benzyl)oxy)phenyl)-2-phenylacetate], in assay [2], the pIC50 is 8.52 to 9.52.
